{"source": "patent US20230063420A1", "target": "GLP-1 receptor (Example 19, species not stated)", "assay": "cell-based or functional assay", "data": [{"substance": "exenatide (peptide)", "values": [{"measurement": "pEC50, cAMP accumulation, 0% HSA", "value": "12.2 -log M"}, {"measurement": "pEC50, cAMP accumulation, 0.1% HSA", "value": "12.2 -log M"}, {"measurement": "pEC50, cAMP accumulation, 4% HSA", "value": "12.1 -log M"}]}]}
